Reference: ChEMBL document CHEMBL5029174, “Discovery of structurally distinct tricyclic M4 positive allosteric modulator (PAM) chemotypes - Part 2” (Bioorg Med Chem Lett, 2021)
Activity calls are given as the source filed them. The calls are words filed in the database; no cut-off is given here.

Chains of the proteins cited; added tags and fusions are not shown.
UniProt P08173, whole entry: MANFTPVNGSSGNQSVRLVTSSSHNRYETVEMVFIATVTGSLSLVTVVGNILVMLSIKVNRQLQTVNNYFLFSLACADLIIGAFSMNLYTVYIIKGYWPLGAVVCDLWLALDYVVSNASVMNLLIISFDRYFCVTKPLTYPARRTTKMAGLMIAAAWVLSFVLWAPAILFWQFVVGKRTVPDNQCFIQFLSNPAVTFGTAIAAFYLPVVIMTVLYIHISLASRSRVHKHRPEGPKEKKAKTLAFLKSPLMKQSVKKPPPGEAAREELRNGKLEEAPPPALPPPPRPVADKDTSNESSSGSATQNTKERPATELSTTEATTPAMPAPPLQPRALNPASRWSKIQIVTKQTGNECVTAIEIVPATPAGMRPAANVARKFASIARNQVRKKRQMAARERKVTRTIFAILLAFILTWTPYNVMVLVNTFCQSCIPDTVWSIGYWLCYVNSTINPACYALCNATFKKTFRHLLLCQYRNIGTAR

Molecular target: Muscarinic acetylcholine receptor M4 (Homo sapiens, UniProt P08173)
Assay: Positive allosteric modulation of human muscarinic acetylcholine M4/Gqi5 receptor expressed in CHO cells in presence of acetylcholine at EC20 concentration by calcium mobilization assay relative to control
Type: functional, cell-based
Method in brief: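 CHO cells stably expressing human M4 with a chimeric Gq protein were tested by calcium mobilization in the presence of an EC20 fixed concentration of acetylcholine. EC50 values come from concentration-response curves. Efficacy is given as % of the maximal acetylcholine response. Each value is n = 1 independent experiment run in triplicate.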

Structure (SMILES) | %max
Cc1cc(C)c2c(n1)oc1c(NCc3ccc(C(C)(C)O)cc3)ncnc12 | inactive
Cc1ccc(CNc2ncnc3c2sc2nc(C)cc(C)c23)c(F)c1 | inactive
Cc1cc(C)c2c(n1)oc1c(NC3CN(c4ncc(C(F)(F)F)cn4)C3)ncnc12 | inactive
Cc1cc(C)c2c(n1)sc1c(NCc3ccc(F)c(Cl)c3)ncnc12 | inactive
Cc1cc(C)c2c(n1)sc1c(C3CCN(c4cncc(F)c4)CC3)ncnc12 | inactive
Cc1cc(C)c2c(n1)oc1c(N3CCCC3)ncnc12 | inactive
Cc1cc(C)c2c(n1)sc1c(C3CCN(CC4CC4)CC3)ncnc12 | inactive
Cc1cc(C)c2c(n1)sc1c(NCc3ccc4sccc4c3)ncnc12 | inactive
COc1ccc(CNc2ncnc3c2oc2nc(C)cc(C)c23)cc1F | inactive
Cc1cc(C)c2c(n1)sc1c(NCc3ccc(OC(F)(F)F)cc3)ncnc12 | inactive
Cc1cc(C)c2c(n1)sc1c(NCc3ccc(C(F)(F)F)cn3)ncnc12 | inactive
